Assay results as given in article PMC8341910, “Structural and biophysical insights into the mode of covalent binding of rationally designed potent BMX inhibitors” (RSC Chemical Biology, 2020).
Where “and” joins values, the source holds several entries; their conditions need not be identical. Identical values can stand only once.

Sequences of proteins named here, by UniProt entry; tags and fusion partners are left off.
UniProt Q06187, whole entry, species assumed: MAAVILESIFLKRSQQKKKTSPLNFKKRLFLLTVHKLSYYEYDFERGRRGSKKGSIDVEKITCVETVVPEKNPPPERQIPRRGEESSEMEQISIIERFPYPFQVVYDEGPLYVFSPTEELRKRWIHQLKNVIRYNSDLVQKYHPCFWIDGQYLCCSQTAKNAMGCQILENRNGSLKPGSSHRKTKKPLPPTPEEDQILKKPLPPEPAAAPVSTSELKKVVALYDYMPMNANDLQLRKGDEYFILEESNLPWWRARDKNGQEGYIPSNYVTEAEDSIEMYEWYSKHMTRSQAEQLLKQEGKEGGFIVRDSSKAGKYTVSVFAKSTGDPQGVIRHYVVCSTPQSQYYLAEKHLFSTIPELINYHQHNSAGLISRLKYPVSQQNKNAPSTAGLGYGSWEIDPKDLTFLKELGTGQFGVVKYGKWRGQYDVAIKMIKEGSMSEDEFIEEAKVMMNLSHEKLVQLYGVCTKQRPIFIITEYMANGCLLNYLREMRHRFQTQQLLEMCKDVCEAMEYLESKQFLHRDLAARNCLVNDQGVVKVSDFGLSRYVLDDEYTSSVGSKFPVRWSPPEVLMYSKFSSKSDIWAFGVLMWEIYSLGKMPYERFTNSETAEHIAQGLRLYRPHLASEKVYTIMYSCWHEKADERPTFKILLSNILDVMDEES

Experiments:
[1] = target: T1, BMX (Homo sapiens, UniProt P51813); assay: BMX biochemical activity assay (HTRF, phosphorylation of a biotinylated peptide)
T1 sequence (P51813 1-675): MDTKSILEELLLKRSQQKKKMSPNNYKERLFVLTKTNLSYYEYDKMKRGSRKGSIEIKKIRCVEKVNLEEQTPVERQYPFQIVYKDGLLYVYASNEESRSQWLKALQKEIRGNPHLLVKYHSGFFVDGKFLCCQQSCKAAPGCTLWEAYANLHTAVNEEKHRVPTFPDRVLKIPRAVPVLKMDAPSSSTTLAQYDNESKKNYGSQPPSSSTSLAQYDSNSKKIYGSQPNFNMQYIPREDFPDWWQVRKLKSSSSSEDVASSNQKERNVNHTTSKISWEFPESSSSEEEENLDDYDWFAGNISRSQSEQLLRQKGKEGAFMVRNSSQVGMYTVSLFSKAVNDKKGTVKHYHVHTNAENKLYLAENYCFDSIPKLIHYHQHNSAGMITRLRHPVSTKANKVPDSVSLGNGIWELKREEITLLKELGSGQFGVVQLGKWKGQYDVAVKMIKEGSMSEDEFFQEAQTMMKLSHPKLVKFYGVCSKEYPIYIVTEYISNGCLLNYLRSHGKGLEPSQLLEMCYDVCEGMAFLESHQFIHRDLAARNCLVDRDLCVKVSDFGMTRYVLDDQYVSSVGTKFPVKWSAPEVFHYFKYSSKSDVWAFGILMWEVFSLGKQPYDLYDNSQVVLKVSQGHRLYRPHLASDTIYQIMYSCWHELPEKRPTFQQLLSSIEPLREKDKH

[2] = target: T2, His6-hsBMX (Homo sapiens, UniProt P51813); assay: Surface plasmon resonance (SPR); type: binding
T2 construct: Crystallization, data collection, and structure determination of BMX catalytic domain in; made in house; host or cells: Sf-9 insect cells

[3] = target: T3, NanoLuc®-BMX fusion vector in HEK293 cells (Homo sapiens, UniProt P51813); assay: NanoBRET TE intracellular kinase assay; type: cell-based; conditions: NanoBRET IC50 ratio
T3 sequence (P51813 1-675): T1 sequence (P51813 1-675)

[4] = target: T1, BMX; assay: Kinetic characterization with ADP-Glo kinase assay; type: biochemical; design: purchased Promega Corporation (USA) V4512; conditions: duplicate, mean ± S.D.
Source text: The inactivation of BMX occurs in a two-step process that is governed by two parameters: the affinity of the initial non-covalent binding, KI, and the rate of the subsequent covalent bond-forming reaction with the thiol of the cysteine residue, kinact. […]. […] Thus, taking into account that all the analogues have the same Michael acceptor moiety, the enhanced activity must be a result of the structural modifications introduced in the scaffold. […]
Kinetic characterization using an ADP-GLOTM kinase assay:
The BMX enzyme system (Catalog. V4512) and the ADP-GloTM kinase assay were purchased from Promega Corporation (USA). In each kinase reaction, the concentration of BMX was set to 4.5 ng/µL. The peptide substrate Poly (4:1 Glu, Tyr) and ATP concentrations were set to 0.25 mg/mL and 50 µM, respectively. BMX was pre-incubated with different inhibitor concentrations (10-fold serial dilutions, starting at 1 mM), over different time periods (2 - 60 min), before initiating the kinase reactions. […] Then, 10 µL of kinase detection reagent was added into the wells and incubated for 30 min to produce a luminescence signal. The signal was measured using an Infinite M200 […]
observed rate constants for inhibition (kobs), at different inhibitor concentrations, were determined from the slope of a semi-logarithmic plot of inhibition versus time, and re-plotted against inhibitor concentration (nM). […]

[5] = target: BTK (Homo sapiens, UniProt Q06187); assay: BTK biochemical activity assay (radiometric, KinaseProfiler); design: purchased Eurofins DiscoverX KinaseProfiler (contract assay)

## C=CC(=O)Nc1cc(C)cc(-n2c(=O)ccc3cnc4cc(-c5ccc(NS(C)(=O)=O)cc5)ccc4c32)c1 [JS25]
[1]
  LE (BMX): 0.30
  LipE (BMX): 4.43
[2]
  koff: < 0.0001 s⁻¹
  kon: 54000 M⁻¹ s⁻¹
[3]
  inhibitory capacity relative to BMX-IN-1 (times greater): 10 times
[4]
  k inact: 0.378 min⁻¹ and 0.378 ± 0.034 min⁻¹
[5]
  BTK potency gain (fold) relative to BMX-IN-1: 62 fold
[5]; ligand efficiency
  LE (BTK): 0.30
[5]; lipophilic efficiency
  LipE (BTK): 4.22
